Assay results reported in patent US20220273770A1, “GLUCOSE-[…] CONJUGATES” (Merck Sharp & Dohme Corp., priority 2019, published 2022).

Sequences of proteins named here, by UniProt entry; tags and fusion partners are left off. Residues count along the entry.
UniProt P06213, 28-758 limits assumed: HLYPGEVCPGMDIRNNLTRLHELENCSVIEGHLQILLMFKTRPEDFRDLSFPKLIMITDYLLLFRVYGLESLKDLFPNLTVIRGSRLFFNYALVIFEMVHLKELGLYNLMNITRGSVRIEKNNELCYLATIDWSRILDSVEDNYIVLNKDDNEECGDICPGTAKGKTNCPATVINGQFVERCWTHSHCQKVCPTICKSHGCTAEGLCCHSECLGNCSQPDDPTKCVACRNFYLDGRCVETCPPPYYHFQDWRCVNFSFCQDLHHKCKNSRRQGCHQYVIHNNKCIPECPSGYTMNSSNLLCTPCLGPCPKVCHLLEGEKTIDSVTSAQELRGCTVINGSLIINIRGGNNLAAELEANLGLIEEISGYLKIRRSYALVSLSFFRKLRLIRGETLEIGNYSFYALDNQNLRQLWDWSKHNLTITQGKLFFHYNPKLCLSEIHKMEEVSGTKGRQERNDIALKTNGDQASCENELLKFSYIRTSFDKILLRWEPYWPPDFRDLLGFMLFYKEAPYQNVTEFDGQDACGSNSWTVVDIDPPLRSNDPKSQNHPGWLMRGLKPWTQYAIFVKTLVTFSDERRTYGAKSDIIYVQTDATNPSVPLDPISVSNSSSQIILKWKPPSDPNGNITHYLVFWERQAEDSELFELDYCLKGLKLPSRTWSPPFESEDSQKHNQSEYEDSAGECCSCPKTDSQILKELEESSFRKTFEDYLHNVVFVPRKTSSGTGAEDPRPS
UniProt P06213, 763-1382 limits assumed: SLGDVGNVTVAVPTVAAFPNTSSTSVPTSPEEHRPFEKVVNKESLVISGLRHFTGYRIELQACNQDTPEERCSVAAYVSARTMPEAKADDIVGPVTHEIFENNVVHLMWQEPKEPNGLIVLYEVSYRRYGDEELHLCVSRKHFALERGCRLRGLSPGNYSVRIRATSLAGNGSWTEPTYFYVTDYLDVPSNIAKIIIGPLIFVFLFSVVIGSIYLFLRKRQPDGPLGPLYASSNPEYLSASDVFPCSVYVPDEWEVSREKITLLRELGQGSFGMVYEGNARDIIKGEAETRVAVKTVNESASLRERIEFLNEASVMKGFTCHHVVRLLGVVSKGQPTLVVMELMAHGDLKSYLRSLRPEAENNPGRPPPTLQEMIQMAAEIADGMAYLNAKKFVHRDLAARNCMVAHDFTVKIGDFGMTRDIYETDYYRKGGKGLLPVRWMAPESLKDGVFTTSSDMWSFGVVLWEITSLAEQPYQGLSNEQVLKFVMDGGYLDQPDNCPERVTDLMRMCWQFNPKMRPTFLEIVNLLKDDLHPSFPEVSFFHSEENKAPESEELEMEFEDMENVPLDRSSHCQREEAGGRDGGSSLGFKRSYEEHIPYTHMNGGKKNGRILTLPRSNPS

Columns and labels:
[1] = biological target: T1, Human macrophage mannose receptor 1 (MRC1) (Homo sapiens, UniProt P22897); test: Human macrophage mannose receptor 1 competition binding assay (Method E 96-well, Method F 384-well); settings: read-out: MRC1 Binding IP‡; Method H as printed in the table
T1 sequence (P22897 19-1456): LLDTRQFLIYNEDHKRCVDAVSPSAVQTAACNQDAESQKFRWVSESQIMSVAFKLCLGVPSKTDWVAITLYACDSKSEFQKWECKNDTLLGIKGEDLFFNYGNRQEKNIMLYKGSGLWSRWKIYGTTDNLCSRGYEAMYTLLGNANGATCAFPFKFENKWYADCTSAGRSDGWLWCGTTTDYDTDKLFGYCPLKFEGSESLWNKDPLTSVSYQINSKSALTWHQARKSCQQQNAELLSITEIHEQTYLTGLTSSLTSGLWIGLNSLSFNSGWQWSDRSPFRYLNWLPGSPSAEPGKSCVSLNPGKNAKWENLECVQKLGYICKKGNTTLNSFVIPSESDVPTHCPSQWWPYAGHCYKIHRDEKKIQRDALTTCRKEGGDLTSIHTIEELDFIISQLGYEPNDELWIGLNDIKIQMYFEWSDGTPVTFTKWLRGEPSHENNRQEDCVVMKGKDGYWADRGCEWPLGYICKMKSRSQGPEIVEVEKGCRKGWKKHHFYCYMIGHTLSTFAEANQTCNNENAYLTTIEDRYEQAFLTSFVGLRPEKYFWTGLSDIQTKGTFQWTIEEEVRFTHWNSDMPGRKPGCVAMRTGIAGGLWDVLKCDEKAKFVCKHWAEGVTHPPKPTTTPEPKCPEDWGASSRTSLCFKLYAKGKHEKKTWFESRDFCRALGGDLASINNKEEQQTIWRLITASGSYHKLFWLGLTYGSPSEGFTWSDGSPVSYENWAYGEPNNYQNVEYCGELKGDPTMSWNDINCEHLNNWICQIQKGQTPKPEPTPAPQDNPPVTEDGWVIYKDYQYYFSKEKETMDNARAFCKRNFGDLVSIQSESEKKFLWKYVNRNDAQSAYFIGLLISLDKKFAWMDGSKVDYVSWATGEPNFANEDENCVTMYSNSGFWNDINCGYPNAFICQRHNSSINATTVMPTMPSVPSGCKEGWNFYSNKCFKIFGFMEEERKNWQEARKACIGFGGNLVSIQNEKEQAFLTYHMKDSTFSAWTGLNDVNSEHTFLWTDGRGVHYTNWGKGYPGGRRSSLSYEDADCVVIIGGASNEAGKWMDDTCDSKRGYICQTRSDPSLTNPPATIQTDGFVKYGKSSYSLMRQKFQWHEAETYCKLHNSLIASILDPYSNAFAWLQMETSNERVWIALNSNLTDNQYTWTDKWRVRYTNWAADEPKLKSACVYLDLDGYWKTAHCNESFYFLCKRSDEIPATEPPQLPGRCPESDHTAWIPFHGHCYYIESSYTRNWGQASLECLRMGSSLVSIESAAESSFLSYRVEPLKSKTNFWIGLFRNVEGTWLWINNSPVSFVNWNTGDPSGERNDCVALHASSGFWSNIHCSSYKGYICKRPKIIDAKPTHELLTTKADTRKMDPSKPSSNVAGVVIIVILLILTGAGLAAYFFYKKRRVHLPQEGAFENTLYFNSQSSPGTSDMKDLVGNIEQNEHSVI
Description: The competition binding assay for Human macrophage mannose receptor 1 (MRC1) utilized a ligand, mannosylated-BSA labeled with the DELFIA Eu-N1-ITC reagent, as reported in the literature. Assay was performed either in a 96-well plate with 100 μL well volume (Method E) or in a 384-well plate with 25 μL well volume (Method F). […] The antibody was incubated in the plate for 1 h at rt with shaking. The plate was washed with wash buffer 3 to 5 times followed by addition of MRC1 (2 ng/μl final concentration) in PBS containing 1% stabilizer BSA. The plate was incubated at rt with gentle shaking for 1 h. The plate was washed three times with wash buffer. […]
(§1) The in vitro biological activities towards insulin receptor (IR) were measured by either ligand competition assays or functional phosphorylation assays, as described above, labeled as following: Method A: IR phosphorylation assay based on 96-well; Method B: IR phosphorylation assay based on 384-well with automated liquid dispense; Method C: cell-based IR binding assay; Method D: SPA IR binding assay method E; Method E: MRC1 assay was performed in a 96-well plate; Method F: MRC1 assay was performed in a 384-well plate.

human IR(B) = biological target: T2, human IR(B) (Homo sapiens, UniProt P06213); test: Insulin receptor phosphorylation assay (MSD pIR; Method A 96-well, Method B 384-well); type: cell-based; settings: read-out: IR Activation IP†; Method C as printed in the table
T2 construct: expressed in transfected cells; host or cells: CHO cells
Description: CHO cells stably expressing human IR(B) were in grown in F12 cell media containing 10% FBS and antibiotics (G418, Penicillin/Strepavidin) for at least 8 h, and then serum starved by switching to F12 media containing 0.5% BSA (insulin-free) in place of FBS for overnight growth. Cells were harvested and frozen in aliquots for use in the MSD pIR assay. Briefly, the frozen cells were plated in either 96-well (40,000 cells/well, Methods A) or 384-well (10,000 cells/well, Method B) clear tissue culture plates and allowed to recover. IOC molecules at the appropriate concentrations were added and the cells incubated for 8 min at 37° C. The media was aspirated and chilled MSD cell lysis buffer was added as per MSD kit instructions. The cells were lysed on ice for 40 min, and the lysate then was mixed for 10 min at rt. […]
as §1

Row | SMILES | IC50 [1] [nM] | EC50 (human IR(B)) [nM]
1 | CC[C@H](C)[C@H](NC(=O)CNC(=O)CCCCC(=O)NCCO[C@H]1O[C@H](CO[C@H]2O[C@H](CO)[C@@H](O)[C@H](O)[C@@H]2O)[C@@H](O)[C@H](O[C@H]2O[C@H](CO)[C@@H](O)[C@H](O)[C@@H]2O)[C@@H]1O)C(=O)N[C@H](C(=O)N[C@@H](CCC(=O)O)C(=O)N[C@@H](CCC(N)=O)C(=O)N[C@H]1CSSC[C@@H]2NC(=O)[C@H]([C@@H](C)CC)NC(=O)[C@H](CO)NC(=O)[C@H]([C@@H](C)O)NC(=O)[C@H](CSSC[C@H](NC(=O)[C@H](CC(C)C)NC(=O)[C@H](Cc3c[nH]cn3)NC(=O)[C@H](CCC(N)=O)NC(=O)[C@H](CC(N)=O)NC(=O)[C@@H](NC(=O)[C@H](Cc3ccccc3)NC(=O)CCCCC(=O)NCCO[C@H]3O[C@H](CO[C@H]4O[C@H](CO)[C@@H](O)[C@H](O)[C@@H]4O)[C@@H](O)[C@H](O[C@H]4O[C@H](CO)[C@@H](O)[C@H](O)[C@@H]4O)[C@@H]3O)C(C)C)C(=O)NCC(=O)N[C@@H](CO)C(=O)N[C@@H](Cc3c[nH]cn3)C(=O)N[C@@H](CC(C)C)C(=O)N[C@@H](C(C)C)C(=O)N[C@@H](CCC(=O)O)C(=O)N[C@@H](C)C(=O)N[C@@H](CC(C)C)C(=O)N[C@@H](Cc3ccc(O)cc3)C(=O)N[C@@H](CC(C)C)C(=O)N[C@@H](C(C)C)C(=O)N[C@H](C(=O)NCC(=O)N[C@@H](CCC(=O)O)C(=O)N[C@@H](CCCNC(=N)N)C(=O)NCC(=O)N[C@@H](Cc3ccccc3)C(=O)N[C@@H](Cc3ccccc3)C(=O)N[C@@H](Cc3ccc(O)cc3)C(=O)N[C@H](C(=O)N3CCC[C@H]3C(=O)N[C@@H](CCCNC(=N)N)C(=O)O)[C@@H](C)O)CSSC[C@@H](C(=O)N[C@@H](CC(N)=O)C(=O)O)NC(=O)[C@H](Cc3ccc(O)cc3)NC(=O)[C@H](CCCCN)NC(=O)[C@H](CCC(=O)O)NC(=O)[C@H](CC(C)C)NC(=O)[C@H](CCC(N)=O)NC(=O)[C@H](Cc3ccc(O)cc3)NC(=O)[C@H](CC(C)C)NC(=O)[C@H](CO)NC2=O)NC1=O)C(C)C [IOC-116] | 20.2 | 1.79
2 | CC[C@H](C)[C@H](NC(=O)CN)C(=O)N[C@H](C(=O)N[C@@H](CCC(=O)O)C(=O)N[C@@H](CCC(N)=O)C(=O)N[C@H]1CSSC[C@@H]2NC(=O)[C@H]([C@@H](C)CC)NC(=O)[C@H](CCCCNC(=O)CCCCC(=O)NCCO[C@H]3O[C@H](CO[C@H]4O[C@H](CO)[C@@H](O)[C@H](O)[C@@H]4O)[C@@H](O)[C@H](O[C@H]4O[C@H](CO)[C@@H](O)[C@H](O)[C@@H]4O)[C@@H]3O)NC(=O)[C@H]([C@@H](C)O)NC(=O)[C@H](CSSC[C@H](NC(=O)[C@H](CC(C)C)NC(=O)[C@H](Cc3c[nH]cn3)NC(=O)[C@H](CCC(N)=O)NC(=O)[C@H](CC(N)=O)NC(=O)[C@@H](NC(=O)[C@@H](N)Cc3ccccc3)C(C)C)C(=O)NCC(=O)N[C@@H](CO)C(=O)N[C@@H](Cc3c[nH]cn3)C(=O)N[C@@H](CC(C)C)C(=O)N[C@@H](C(C)C)C(=O)N[C@@H](CCC(=O)O)C(=O)N[C@@H](C)C(=O)N[C@@H](CC(C)C)C(=O)N[C@@H](Cc3ccc(O)cc3)C(=O)N[C@@H](CC(C)C)C(=O)N[C@@H](C(C)C)C(=O)N[C@H](C(=O)NCC(=O)N[C@@H](CCC(=O)O)C(=O)N[C@@H](CCCNC(=N)N)C(=O)NCC(=O)N[C@@H](Cc3ccccc3)C(=O)N[C@@H](Cc3ccccc3)C(=O)N[C@@H](Cc3ccc(O)cc3)C(=O)N[C@H](C(=O)N3CCC[C@H]3C(=O)N[C@@H](CCCCNC(=O)CCCCC(=O)NCCO[C@H]3O[C@H](CO[C@H]4O[C@H](CO)[C@@H](O)[C@H](O)[C@@H]4O)[C@@H](O)[C@H](O[C@H]4O[C@H](CO)[C@@H](O)[C@H](O)[C@@H]4O)[C@@H]3O)C(=O)O)[C@@H](C)O)CSSC[C@@H](C(=O)N[C@@H](CC(N)=O)C(=O)O)NC(=O)[C@H](Cc3ccc(O)cc3)NC(=O)[C@H](CC(N)=O)NC(=O)[C@H](CCC(=O)O)NC(=O)[C@H](CC(C)C)NC(=O)[C@H](CCC(N)=O)NC(=O)[C@H](Cc3ccc(O)cc3)NC(=O)[C@H](CC(C)C)NC(=O)[C@H](CO)NC2=O)NC1=O)C(C)C [IOC-118] | 24.1 | 0.866
